PubChem BioAssay (Tox21)
The entries are a selection whose mix differs from that of the whole data set. Inconclusive results are not listed. Activity calls are given as the source filed them. Unless noted, calls come from the whole dose curve; as a rule, active = well fitted curve in the direction sought with a large enough effect in the repeat runs; inconclusive = weak or mixed curves; inactive = no such curve, though single readings can be large; an effect the other way counts as inactive or inconclusive.

Chains of the proteins cited; added tags and fusions are not shown.
UniProt P11511, whole entry: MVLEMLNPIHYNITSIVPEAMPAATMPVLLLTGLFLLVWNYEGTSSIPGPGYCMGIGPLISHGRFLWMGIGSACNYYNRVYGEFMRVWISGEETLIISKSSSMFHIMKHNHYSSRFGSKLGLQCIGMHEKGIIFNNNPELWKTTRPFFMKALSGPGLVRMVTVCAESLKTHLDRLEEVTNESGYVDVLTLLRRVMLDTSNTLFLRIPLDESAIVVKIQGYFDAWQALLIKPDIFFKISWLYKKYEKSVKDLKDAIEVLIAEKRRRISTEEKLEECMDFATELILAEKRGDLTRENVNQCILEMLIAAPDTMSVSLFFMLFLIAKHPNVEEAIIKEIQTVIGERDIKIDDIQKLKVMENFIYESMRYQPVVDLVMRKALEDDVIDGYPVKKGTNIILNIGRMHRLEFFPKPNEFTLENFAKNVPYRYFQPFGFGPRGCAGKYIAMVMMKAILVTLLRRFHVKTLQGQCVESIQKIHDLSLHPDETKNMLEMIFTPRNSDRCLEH
UniProt Q14994, whole entry: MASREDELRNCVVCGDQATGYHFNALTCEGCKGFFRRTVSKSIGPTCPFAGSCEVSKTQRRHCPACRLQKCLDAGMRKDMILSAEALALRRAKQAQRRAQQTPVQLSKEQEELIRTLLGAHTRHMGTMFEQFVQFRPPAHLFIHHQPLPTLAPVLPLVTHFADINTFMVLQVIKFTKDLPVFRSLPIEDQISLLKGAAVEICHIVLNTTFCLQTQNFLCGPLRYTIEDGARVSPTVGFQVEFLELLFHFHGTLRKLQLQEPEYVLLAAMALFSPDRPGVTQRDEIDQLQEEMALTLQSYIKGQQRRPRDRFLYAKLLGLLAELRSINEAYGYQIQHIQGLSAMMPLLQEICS

Assays:
[1] = qHTS assay for small molecule agonists of the p53 signaling pathway - cell viability (AID 651633; calls by dose curve; note: nearly all actives have a fitted effect of over 30% in size)
Method in brief: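 p53RE-bla cells, seeded at 4,000 per well and rested 5 h at 37 C/5% CO2, received compounds in DMSO for 16 h at 37 C. CellTiter-Glo was then added, and luminescence was read after 30 min at room temperature to gauge cytotoxicity.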

[2] = qHTS assay for small molecules that induce genotoxicity in human embryonic kidney cells expressing luciferase-tagged ATAD5 - cell viability (AID 651634; calls by dose curve; note: nearly all actives have a fitted effect of over 25% in size); settings: HEK293T ATAD5-luc cells viability, CellTiter-Fluor, 15.5 h
Method in brief: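 HEK293T cells carrying luciferase-tagged ATAD5, 2,000 cells/well, exposed to compound for 15.5 hr at 37C. Viability read as live-cell protease activity by CellTiter-Fluor fluorescence after 30 min at 37C.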

[3] = qHTS assay for small molecule disruptors of the mitochondrial membrane potential - cell viability (AID 720634; calls by dose curve; note: nearly all actives have a fitted effect of over 20% in size); settings: HepG2 viability, ATP luminescence (CellTiter-Glo), 1 h
Method in brief: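 HepG2 cells, 2,000 per well, attached overnight, then treated 1 hr at 37 C, 5% CO2. Viability read as ATP by CellTiter-Glo luminescence after 30 min at room temperature. Read in the same wells as the m-MPI membrane-potential dye assay.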

[4] = qHTS assay for small molecule disruptors of the mitochondrial membrane potential (AID 720635); settings: HepG2 mitochondrial membrane potential, Mito-MPS dye ratio
Method in brief: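 HepG2 cells (2,000/well) attached overnight at 37C, then took compound for 1 hr at 37C, 5% CO2. Mito-MPS dye was added for 30 min; fluorescence was read at 490/535 nm (monomers) and 540/590 nm (aggregates).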

[5] = qHTS assay to identify small molecule antagonists of the glucocorticoid receptor (GR) signaling pathway - cell viability counter screen (AID 720693); note: nearly all actives have a fitted effect of over 55% in size
[6] = qHTS assay to identify small molecule antagonists of the androgen receptor (AR) signaling pathway - cell viability counter screen (AID 743033; note: nearly all actives have a fitted effect of over 45% in size); settings: AR-bla HEK293 viability, CellTiter-Glo luminescence, 16 h
[7] = qHTS assay to identify small molecule antagonists of the androgen receptor (AR) signaling pathway using the MDA cell line - cell viability counter screen (AID 743041; note: nearly all actives have a fitted effect of over 45% in size); settings: MDA-kb2 viability, CellTiter-Fluor, 16 h; cells co-treated with R1881 androgen agonist
Method in brief: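 Viability counter screen run alongside the AR antagonist reporter: cells seeded 5 h before compound, R1881 added, 16 h incubation at 37C without CO2, fluorescent CellTiter-Fluor signal quantified.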

[8] = qHTS assay to identify small molecule antagonists of the thyroid receptor (TR) signaling pathway - cell viability counter screen (AID 743064); settings: GH3.TRE-Luc viability, CellTiter-Fluor, 24 h; note: nearly all actives have a fitted effect of over 50% in size
Method in brief: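 In rat pituitary GH3.TRE-Luc reporter cells co-exposed to compound and 1 nM T3 for 23.5 h, cytotoxicity was assessed with CellTiter-Fluor in the same wells, read by fluorescence.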

[9] = qHTS assay to identify small molecule antagonists of the estrogen receptor alpha (ER-alpha) signaling pathway using the BG1 cell line - cell viability counter screen (AID 743081);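 note: compound given together with 17beta-estradiol as the ER stimulus; nearly all actives have a fitted effect of over 45% in size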
Aromatase (Homo sapiens) = Aromatase (Homo sapiens) (UniProt P11511); experiment: qHTS assay to identify aromatase inhibitors (AID 743083); note: nearly all actives have a fitted effect of over 55% in size
[10] = qHTS assay to identify aromatase inhibitors - cell viability counter screen (AID 743084);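 note: cells stimulated with testosterone during compound exposure; nearly all actives have a fitted effect of over 55% in size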
[11] = qHTS assay to identify small molecule that activate the aryl hydrocarbon receptor (AhR) signaling pathway - cell viability counter screen (AID 743086); settings: HepG2-AhR-luc viability, CellTiter-Fluor, 24 h; note: nearly all actives have a fitted effect of over 45% in size
Method in brief: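 HepG2-AhR-luc (HG2L7.5c1) cells, 4000/well, were preincubated 5 h at 37C, exposed to compound in qHTS format for 24 hr at 37C, then given CellTiter-Fluor for 30 min; viability was read as fluorescence in the reporter wells.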

[12] = qHTS assay to identify small molecule antagonists of the peroxisome proliferator-activated receptor gamma (PPARg) signaling pathway - cell viability counter screen (AID 743194); note: nearly all actives have a fitted effect of over 55% in size
Method in brief: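 PPARg-UAS-bla HEK293H cells were plated, rested 5 h at 37 C, then treated with compounds plus rosiglitazone (50 nM final) for 17 h at 37 C; viability was then read by CellTiter-Glo luminescence after 30 min at room temperature.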

[13] = qHTS assay for small molecule agonists of the antioxidant response element (ARE) signaling pathway - cell viability counter screen (AID 743203; calls by dose curve; note: nearly all actives have a fitted effect of over 55% in size); settings: ARE-bla HepG2 viability, CellTiter-Glo luminescence, 16 h
Method in brief: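 ARE-bla HepG2 cells were plated, rested 5 h at 37C/5% CO2, then exposed to compounds in DMSO for 16 h. Viability was read as CellTiter-Glo luminescence after 30 min at room temperature, in the same wells as the ARE screen.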

[14] = qHTS assay for small molecule activators of the heat shock response signaling pathway - cell viability counter screen (AID 743209); settings: HSE-bla HeLa viability, CellTiter-Glo luminescence, 5 h; note: nearly all actives have a fitted effect of over 50% in size
Method in brief: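 HSE-bla HeLa cells plated overnight, then exposed to Tox21 compounds (23 nL in DMSO) for 5 h at 37 C. After the bla reporter read, CellTiter-Glo was added in the same wells and luminescence read after 30 min at room temperature.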

[15] = qHTS assay to identify small molecule agonists of the peroxisome proliferator-activated receptor delta (PPARd) signaling pathway - cell viability counter screen (AID 743211); note: nearly all actives have a fitted effect of over 55% in size
Method in brief: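 qHTS cell viability: PPARd-bla HEK293H; 17 h cpd, 37C; CellTiter-Glo, luminescence at 30 min RT.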

[16] = qHTS assay to identify small molecule antagonists of the peroxisome proliferator-activated receptor delta (PPARd) signaling pathway - cell viability counter screen (AID 743213); settings: PPARd-bla HEK293H viability, CellTiter-Glo luminescence, 17 h; note: nearly all actives have a fitted effect of over 50% in size
Method in brief: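 PPARd-bla HEK293H cells (3000/well) got compound plus 300 nM L165041 agonist for 17 h at 37 C. Viability in the same wells came from CellTiter-Glo luminescence after 30 min at room temperature.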

[17] = qHTS assay to identify small molecule agonists of the farnesoid-X-receptor (FXR) signaling pathway - cell viability counter screen (AID 743218); settings: FXR-bla HEK293T viability, CellTiter-Glo luminescence, 16 h; note: nearly all actives have a fitted effect of over 45% in size
Method in brief: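 FXR-UAS-bla HEK 293T cells exposed to compounds for 16 h at 37C. Cytotoxicity read in the same wells by CellTiter-Glo luminescence after 30 min at room temperature, following the beta-lactamase FRET read.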

[18] = qHTS assay to identify small molecule antagonists of the farnesoid-X-receptor (FXR) signaling pathway - cell viability counter screen (AID 743221; active = well fitted cell-killing curve with a large enough effect in the repeat runs, not every such curve was filed as active; note: nearly all actives have a fitted effect of over 50% in size); settings: FXR-bla HEK293T viability, CellTiter-Glo luminescence, 16 h
Method in brief: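 After a 5 h settling period, FXR-bla HEK 293T cells receive compound and chenodeoxycholic acid (50 uM final) and incubate 16 h at 37 C; CellTiter-Glo luminescence, read after 30 min at room temperature, reports cell viability.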

[19] = qHTS assay to identify small molecule agonists of the vitamin D receptor (VDR) signaling pathway - cell viability counter screen (AID 743224); note: nearly all actives have a fitted effect of over 50% in size
Method in brief: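 VDR-bla cells, 4 h after plating, exposed to compounds for 16 h at 37C; viability then read in the same wells as CellTiter-Glo luminescence after 30 min at room temperature, following the bla FRET read.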

[20] = qHTS assay to identify small molecule antagonists of the vitamin D receptor (VDR) signaling pathway - cell viability counter screen (AID 743225); settings: VDR-bla HEK293T viability, CellTiter-Glo luminescence, 16 h; note: nearly all actives have a fitted effect of over 50% in size
Method in brief: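 Parallel cytotoxicity test: VDR-UAS-bla HEK 293T, 3 nM (final) 1-alpha,25-dihydroxyvitamin D3 with test compound, 16 h, 37C. Endpoint is CellTiter-Glo luminescence in the same wells.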

[21] = qHTS assay to identify small molecule agonists of the NFkB signaling pathway - cell viability counter screen (AID 1159515; calls by dose curve; note: nearly all actives have a fitted effect of over 55% in size); settings: NFkB-bla ME-180 viability, CellTiter-Glo luminescence, 5 h
Method in brief: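 NFkB-bla ME-180 cells, 2,000/well, plated overnight at 37 C; compound added for 5 hr at 37 C. Viability read in the same wells as the bla reporter, by CellTiter-Glo luminescence after 30 min at room temperature.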

[22] = qHTS assay to identify small molecule antagonists of the retinoid-related orphan receptor gamma (ROR-gamma) signaling pathway - cell viability counter screen (AID 1159520); settings: Tet-on RORgamma CHO cells viability, ATP luminescence, 16 h; note: nearly all actives have a fitted effect of over 50% in size
Method in brief: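 Tet-on ROR gamma CHO cells (1,000/well) were plated 4 hr, given compounds in DMSO for 2 hr at 37 C, then induced with 1 uM final doxycycline for 16 hr. Viability was read as ATP by CellTiter-Glo luminescence after 30 min.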

[23] = target: Nuclear receptor ROR-gamma (Homo sapiens) (UniProt P51449); experiment: qHTS assay to identify small molecule antagonists of the retinoid-related orphan receptor gamma (ROR-gamma) signaling pathway (AID 1159521; note: nearly all actives have a fitted effect of over 50% in size); settings: Tet-on RORgamma CHO cells, RORE-luciferase, 16 h
[24] = qHTS assay to identify small molecule agonists of the AP-1 signaling pathway - cell viability counter screen (AID 1159525; calls by dose curve; note: nearly all actives have a fitted effect of over 55% in size); settings: ME-180 AP-1-bla cells viability, ATP luminescence, 5 h
Method in brief: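 ME-180 AP-1-bla, 2500 cells/well, Opti-MEM + 0.5% dialyzed FBS; overnight 37 °C; cpd 15-pt titration, 5 h 37 °C; CellTiter-Glo 30 min RT; luminescence read; normalised to TOAB and DMSO controls.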

[25] = qHTS assay to identify small molecule agonists of the RXR signaling pathway - cell viability counter screen (AID 1159529); settings: RXR-alpha-bla HEK293T viability, CellTiter-Glo, 16 h; note: nearly all actives have a fitted effect of over 50% in size
Method in brief: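 In this parallel viability measure, GeneBLAzer RXR-alpha HEK 293T cells (2% charcoal-stripped FBS) were given a 5 hr preincubation, treated with compounds 16 hr at 37 C, and read by CellTiter-Glo luminescence.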

[26] = qHTS assay to identify small molecule antagonists of the retinoic acid receptor (RAR) signaling pathway (AID 1159552; note: nearly all actives have a fitted effect of over 50% in size); settings: C3RL4 RARE luciferase reporter, retinol-stimulated, 6 h
Method in brief: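 C3RL4 RARE-luc cells, overnight plating; retinol 1 uM final added right after compound; 6 hr 37 C; luciferase read at 30 min RT.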

[27] = qHTS assay to identify small molecule antagonists of the estrogen related receptor (ERR) signaling pathway from Tox21 library - cell viability counter screen (AID 1224834); note: nearly all actives have a fitted effect of over 30% in size
Method in brief: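 ERR reporter cells, 2,000 per well, rested 6 h, then exposed to compound in DMSO for 17.5 hours at 37 C. Viability read as fluorescence after 30 min with CellTiter-Fluor.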

[28] = qHTS assay to identify small molecule agonists of the constitutive androstane receptor (CAR) signaling pathway - cell viability counter screen (AID 1224836); note: nearly all actives have a fitted effect of over 45% in size
Method in brief: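 Using CellTiter-Fluor, viability of HepG2 cells harbouring hCAR and CYP2B6-2.2kb was measured following 23 h incubation with a 15-concentration compound series plus PK11195 (0.75 uM final).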

[29] = qHTS assay to identify small molecule antagonists of the constitutive androstane receptor (CAR) signaling pathway - cell viability counter screen (AID 1224837); note: nearly all actives have a fitted effect of over 45% in size
Method in brief: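 HepG2 cells stably carrying hCAR and CYP2B6-2.2kb reporter, stimulated with 50 nM CITCO and compounds at 15 concentrations for 23 h at 37 C. Viability measured by CellTiter-Fluor fluorescence.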

[30] = target: Nuclear receptor subfamily 1 group I member 3 (Homo sapiens) (UniProt Q14994); experiment: qHTS assay to identify small molecule antagonists of the constitutive androstane receptor (CAR) signaling pathway (AID 1224838); settings: HepG2-CYP2B6-hCAR luciferase, CITCO-stimulated, 24 h; note: nearly all actives have a fitted effect of over 40% in size
[31] = qHTS assay to identify small molecule antagonists of the estrogen related receptor signaling pathway with the pleiotropic PPARgamma coactivator (PGC) from Tox21 10K library - cell viability counter screen (AID 1224840; active = well fitted cell-killing curve with a large enough effect in the repeat runs, not every such curve was filed as active; note: nearly all actives have a fitted effect of over 40% in size)
Method in brief: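 PGC/ERR cells (2,000/well) plated 6 h, then compound-treated for 17.5 h at 37 C. Viability measured by CellTiter-Fluor fluorescence after 30 min at 37 C, multiplexed with the pathway assay.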

Measured: Potency
Potency is the fitted concentration of half-maximal effect.

N#CSc1ccc([N+](=O)[O-])cc1[N+](=O)[O-]
active: [1] 27.3 µM | [2] 61.1 µM | [3] 61.1 µM | [4] 13.7 µM | [5] 54.9 µM | [6] 19.5 µM | [7] 61.1 µM | [8] 13.7 µM | [9] 68.6 µM | Aromatase (Homo sapiens) 27.3 µM | [10] 21.7 µM | [11] 27.3 µM | [12] 13.8 µM | [13] 13.7 µM | [14] 19.5 µM | [15] 17.4 µM | [16] 24.5 µM | [17] 19.5 µM | [18] 15.5 µM | [19] 17.4 µM | [20] 21.9 µM | [21] 24.5 µM | [22] 15.4 µM | [23] 13.7 µM | [24] 17.4 µM | [25] 13.8 µM | [26] 24.3 µM | [27] 30.6 µM | [28] 24.3 µM | [29] 17.2 µM | [30] 13.7 µM | [31] 24.3 µM
